Experimental data published in ChEMBL document CHEMBL1145598, “Discovery and preclinical studies of 5-isopropyl-6-(5-methyl-1,3,4-oxadiazol-2-yl)-N-(2-methyl-1H-pyrrolo[2,3-b]pyridin-5-yl)pyrrolo[2,1-f][1,2,4]triazin-4-amine (BMS-645737), an in vivo active potent VEGFR-2 inhibitor” (Bioorg Med Chem Lett, 2008).

Organism: Homo sapiens
Experiment: Protein binding in human plasma
Details: read-out: PPB (converted)

fraction unbound: 0.028
Structure (SMILES): Cc1cc2cc(Nc3ncnn4cc(-c5nnc(C)o5)c(C(C)C)c34)cnc2[nH]1
